For one experiment, the target named is hHINT1 (Homo sapiens, UniProt P49773). Description: Phosphoramidase fluorescence assay. The experiment is classed as biochemical. The protocol:
The fluorescence of tryptophan (ex, 280 nm, em 360 nm) can be quenched when covalently attached to a nucleoside monophosphate, and nucleoside phosphoramidates of D- and L-tryptophan and tryptamine are excellent fluorescent substrates for hHINT1. Typically, after measurement of initial substrate fluorescence, hHINT1 was added to the reaction solution (HEPES buffer, pH 7.2, 25° C.) and the change in fluorescence over 2 min was determined by converting the slope into μM of substrate hydrolyzed per μg of enzyme per min with a standard curve. […] Based on the generation of chimeric polypeptides between the hHINTI and the hinT of E. coli, the preference for D enantiomers by the human HINT1 polypeptide is likely conferred by the C-terminus amino acids (e.g., the C-terminus 5, 6, 5 7, 8, 9, 10, or 11 amino acids) of the hHINT1 enzyme. The activity of hHINT1 with guanosine monophosphate (GMP) D-tryptophan phosphoramidate was approximately 7-fold greater than that for 7-benzyl guanosine monophosphate (7-Bn GMP), but nearly identical to that for GMP L-tryptophan. In addition, both D-tryptophan phosphoramidates of cytosine and uridine were substrates. Initial rates were determined 10 during the first 10-20% of the reaction for variable substrate concentrations. The Michaelis-Menten constants, kcat and Km, for selected nucleoside phosphosphoramidates have been determined. (Table 4). As observed in the initial screening assay, for phosphoramidates containing L-tryptophan, hHINT1 has a 7-fold greater preference for AMP phosphoramidates of L-tryptophan than GMP.

Sequences of proteins named here, by UniProt entry; tags and fusion partners are left off.
UniProt P49773, whole entry: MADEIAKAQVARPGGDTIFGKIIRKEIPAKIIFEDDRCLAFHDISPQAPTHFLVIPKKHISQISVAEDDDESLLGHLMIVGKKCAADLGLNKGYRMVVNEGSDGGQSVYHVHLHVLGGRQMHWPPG
UniProt P0ACE7, whole entry: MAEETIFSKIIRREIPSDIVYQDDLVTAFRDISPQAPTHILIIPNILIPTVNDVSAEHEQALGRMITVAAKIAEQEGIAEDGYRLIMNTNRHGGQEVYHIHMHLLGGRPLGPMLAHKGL

For another experiment, the target named is E. coli hinT (Escherichia coli, UniProt P0ACE7). The experiment can be described thus: Phosphoramidase fluorescence assay. The conditions noted are these: Table 5.
[1] abbreviates: Table 4, HEPES buffer, pH 7.2, 25° C.

By Km is commonly meant the substrate concentration at which the rate is half of its maximum. In the case of `NC(=O)[C@H](Cc1c[nH]c2ccccc12)NP(=O)(O)OC[C@H]1O[C@@H](n2cnc3c(=O)[nH]c(N)nc32)[C@H](O)[C@@H]1O`, at hHINT1 (setting [1]), the Km is 28.3 µM and the k cat was determined as 0.44 s⁻¹.

Take `COC(=O)[C@H](Cc1c[nH]c2ccccc12)NP(=O)(O)OC[C@H]1O[C@@H](n2cnc3c(N)ncnc32)[C@H](O)[C@@H]1O`: at hHINT1, the “Preference of hHINT1 for AMP over GMP phosphoramidates of L-tryptophan” value is 7 fold. In addition, on hHINT1 (setting [1]), the Km is 31.1 µM and the k cat came to 3.02 s⁻¹.

Turning to `COC(=O)[C@H](Cc1c[nH]c2ccccc12)NP(=O)(O)OC[C@H]1O[C@@H](n2cnc3c(=O)[nH]c(N)nc32)[C@H](O)[C@@H]1O`, the Km is 101 µM on hHINT1 (setting [1]), 28.6 µM at hHINT1 (Table 5) and 19.9 µM on E. coli hinT. The k cat on hHINT1 (setting [1]) amounted to 1.42 s⁻¹; at hHINT1 (Table 5) it was 0.057 ± 0.02 s⁻¹; on E. coli hinT, 1.96 ± 0.12 s⁻¹.

The values above are taken from patent publication US20060014193A1, “Nucleoside phosphoramidates and nucleoside phosphoramidases” (priority 2004, published 2006).
